Protein sequences, listed by entry. Tags and fused reporters are not part of them.
UniProt P08659, whole entry: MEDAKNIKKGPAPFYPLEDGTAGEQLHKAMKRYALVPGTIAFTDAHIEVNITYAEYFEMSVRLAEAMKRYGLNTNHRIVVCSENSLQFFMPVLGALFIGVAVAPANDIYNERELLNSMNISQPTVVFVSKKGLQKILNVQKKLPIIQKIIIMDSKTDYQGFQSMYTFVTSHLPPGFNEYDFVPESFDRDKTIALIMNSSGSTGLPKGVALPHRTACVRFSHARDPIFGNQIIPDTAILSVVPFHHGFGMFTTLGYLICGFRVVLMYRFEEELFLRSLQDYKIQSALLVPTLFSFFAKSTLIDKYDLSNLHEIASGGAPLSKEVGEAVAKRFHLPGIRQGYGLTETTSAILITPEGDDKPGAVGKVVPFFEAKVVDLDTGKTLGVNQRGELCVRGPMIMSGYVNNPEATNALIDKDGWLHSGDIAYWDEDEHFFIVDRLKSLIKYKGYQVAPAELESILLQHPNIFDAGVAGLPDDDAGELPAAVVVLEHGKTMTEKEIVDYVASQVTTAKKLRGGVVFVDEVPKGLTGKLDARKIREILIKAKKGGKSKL

According to patent US20080003627A1, “SYSTEM FOR BIOSYNTHESIS OF FIREFLY LU[…] WITH NATURAL L-CYSTEINE OR DERIVATIVES THEREOF AND LU[…] SOLUTIONS CONTAINING THE SYSTEM” (NATIONAL INSTITUTE OF ADVANCED INDUSTRIAL SCIENCE AND …, priority 2004, published 2008):

Target: firefly luciferase (Photinus pyralis, UniProt P08659)
Test: firefly luminescence reaction (luminescence activity as substrate)
Format: biochemical
Conditions: ATP, Mg ion, luminometer

Structure (SMILES): O=C(O)[C@H]1CSC(c2nc3ccc(O)cc3s2)=N1 [firefly D-luciferin, reference compound]
- luminescence activity (produces luminescence with luciferase): produces the luminescence

Structure (SMILES): O=C(O)[C@@H]1CSC(c2nc3ccc(O)cc3s2)=N1 [firefly L-luciferin]
- luminescence activity (produces luminescence with luciferase): no luminescence activity
